Legend:
Neurokinin NK2 = target: T1, Neurokinin NK2 (Homo sapiens, UniProt P21452); assay: Radioligand binding, [125I]NKA
T1 construct: expressed in transfected cells; host or cells: CHO cells

The chains behind the UniProt entries cited, without tags or fusion partners. Where a name states a change or a piece, a line headed by the entry shows the natural chain unless it says otherwise.
UniProt P21452, whole entry: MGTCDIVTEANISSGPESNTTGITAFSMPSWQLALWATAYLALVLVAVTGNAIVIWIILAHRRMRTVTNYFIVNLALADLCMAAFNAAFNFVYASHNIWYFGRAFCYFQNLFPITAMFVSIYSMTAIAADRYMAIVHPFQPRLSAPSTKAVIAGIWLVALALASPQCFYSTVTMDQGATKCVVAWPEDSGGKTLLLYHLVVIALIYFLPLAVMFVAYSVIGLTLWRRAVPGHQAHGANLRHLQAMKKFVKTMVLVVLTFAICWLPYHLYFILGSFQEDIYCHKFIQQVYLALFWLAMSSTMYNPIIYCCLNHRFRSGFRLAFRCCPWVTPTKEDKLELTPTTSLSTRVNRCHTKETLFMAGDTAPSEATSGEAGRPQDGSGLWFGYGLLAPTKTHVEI
UniProt P43116: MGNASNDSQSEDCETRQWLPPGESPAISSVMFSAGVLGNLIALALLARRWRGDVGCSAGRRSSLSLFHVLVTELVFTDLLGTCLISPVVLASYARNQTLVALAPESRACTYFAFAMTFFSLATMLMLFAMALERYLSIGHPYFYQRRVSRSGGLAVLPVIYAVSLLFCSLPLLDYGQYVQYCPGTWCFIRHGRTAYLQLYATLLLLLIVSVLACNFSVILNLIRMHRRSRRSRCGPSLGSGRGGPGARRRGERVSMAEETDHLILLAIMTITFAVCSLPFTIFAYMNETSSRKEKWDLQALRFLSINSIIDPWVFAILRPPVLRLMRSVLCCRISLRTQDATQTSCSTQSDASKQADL

EP2 = target: T2, EP2 (Homo sapiens, UniProt P43116); assay: Radioligand binding, [3H]PGE2; settings: reference compound run for the assay
T2 construct: expressed in transfected cells; host or cells: HEK-293 cells

| IC50 (EP2) | SMILES | IC50 (Neurokinin NK2) |
| --- | --- | --- |
|  | CCCC[C@H](NC(=O)[C@H](CC(C)C)NC(=O)CNC(=O)[C@@H](NC(=O)[C@H](Cc1ccccc1)NC(=O)[C@H](CO)NC(=O)[C@@H](N)CC(=O)O)C(C)C)C(N)=O | 2.7 nM |
| 1.7 nM | CCCCC[C@H](O)/C=C/[C@H]1[C@H](O)CC(=O)[C@@H]1C/C=C\CCCC(=O)O [PGE2] |  |

Reference: PMC8086025, “A benzopyran with antiarrhythmic activity is an inhibitor of Kir3.1-containing potassium channels” (The Journal of Biological Chemistry, 2021)
